Measurements published in article PMC12575831, “Pseudouridylation of 7SK by PUS7 regulates Pol II transcription elongation” (Nature Communications, 2025).

Chains of the proteins cited; added tags and fusions are not shown.
UniProt O94992, whole entry: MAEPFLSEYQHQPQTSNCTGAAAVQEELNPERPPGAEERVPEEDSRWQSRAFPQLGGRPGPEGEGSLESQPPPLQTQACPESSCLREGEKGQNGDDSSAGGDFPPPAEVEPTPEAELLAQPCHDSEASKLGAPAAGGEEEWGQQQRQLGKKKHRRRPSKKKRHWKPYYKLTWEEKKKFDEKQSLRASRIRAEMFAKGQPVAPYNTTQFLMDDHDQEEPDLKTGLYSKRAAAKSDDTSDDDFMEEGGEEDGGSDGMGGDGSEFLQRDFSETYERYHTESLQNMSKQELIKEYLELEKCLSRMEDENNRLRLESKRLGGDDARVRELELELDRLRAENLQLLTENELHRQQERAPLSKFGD

How the values were obtained:
Assay in all cases: co-IP; endogenous proteins in HCT116 lysate (150 mM NaCl, 50 mM Tris-HCl pH 7.5, 1% NP-40, protease inhibitor, SUPERase-In); antibody against LARP7, HEXIM1 or MEPCE 2 h at 4 °C, Protein A beads, western blot; cells treated with control siRNA or PUS7 siRNA (PUS7 KD) before lysis
Conditions in all cases: partners not purified
HEXIM1 = biological target: T1, HEXIM1 (human (endogenous in HCT116), UniProt O94992)
T1 construct: HEXIM1, human, endogenous protein of the 7SK snRNP, precipitated with a rabbit anti-HEXIM1 antibody; also called HEIMX1; source: endogenous, HCT116 lysate

LARP7 = biological target: T2, LARP7 (human (endogenous in HCT116), UniProt Q4G0J3 1-582)
T2 construct: LARP7, human, endogenous protein of the 7SK snRNP, precipitated with a rabbit anti-LARP7 antibody; source: endogenous, HCT116 lysate
T2 sequence (looked up): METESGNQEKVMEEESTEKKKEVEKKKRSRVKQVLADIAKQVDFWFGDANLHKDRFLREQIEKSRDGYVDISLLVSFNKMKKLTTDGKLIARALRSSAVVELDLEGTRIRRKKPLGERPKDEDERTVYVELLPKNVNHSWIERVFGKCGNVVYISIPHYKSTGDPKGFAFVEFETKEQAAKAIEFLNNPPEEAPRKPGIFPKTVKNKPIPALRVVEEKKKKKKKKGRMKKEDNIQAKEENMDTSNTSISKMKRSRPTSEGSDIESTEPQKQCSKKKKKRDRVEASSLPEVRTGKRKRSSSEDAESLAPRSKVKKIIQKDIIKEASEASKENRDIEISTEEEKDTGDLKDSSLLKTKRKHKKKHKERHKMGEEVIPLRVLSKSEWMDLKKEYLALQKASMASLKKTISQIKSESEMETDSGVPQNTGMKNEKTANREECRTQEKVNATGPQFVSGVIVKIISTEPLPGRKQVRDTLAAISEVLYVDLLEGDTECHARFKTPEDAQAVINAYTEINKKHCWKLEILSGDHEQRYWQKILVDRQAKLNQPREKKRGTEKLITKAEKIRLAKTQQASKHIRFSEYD

MEPCE = biological target: T3, MEPCE (human (endogenous in HCT116), UniProt Q7L2J0 1-689)
T3 construct: MEPCE, human, endogenous protein of the 7SK snRNP, precipitated with a rabbit anti-MEPCE antibody; source: endogenous, HCT116 lysate
T3 sequence (looked up): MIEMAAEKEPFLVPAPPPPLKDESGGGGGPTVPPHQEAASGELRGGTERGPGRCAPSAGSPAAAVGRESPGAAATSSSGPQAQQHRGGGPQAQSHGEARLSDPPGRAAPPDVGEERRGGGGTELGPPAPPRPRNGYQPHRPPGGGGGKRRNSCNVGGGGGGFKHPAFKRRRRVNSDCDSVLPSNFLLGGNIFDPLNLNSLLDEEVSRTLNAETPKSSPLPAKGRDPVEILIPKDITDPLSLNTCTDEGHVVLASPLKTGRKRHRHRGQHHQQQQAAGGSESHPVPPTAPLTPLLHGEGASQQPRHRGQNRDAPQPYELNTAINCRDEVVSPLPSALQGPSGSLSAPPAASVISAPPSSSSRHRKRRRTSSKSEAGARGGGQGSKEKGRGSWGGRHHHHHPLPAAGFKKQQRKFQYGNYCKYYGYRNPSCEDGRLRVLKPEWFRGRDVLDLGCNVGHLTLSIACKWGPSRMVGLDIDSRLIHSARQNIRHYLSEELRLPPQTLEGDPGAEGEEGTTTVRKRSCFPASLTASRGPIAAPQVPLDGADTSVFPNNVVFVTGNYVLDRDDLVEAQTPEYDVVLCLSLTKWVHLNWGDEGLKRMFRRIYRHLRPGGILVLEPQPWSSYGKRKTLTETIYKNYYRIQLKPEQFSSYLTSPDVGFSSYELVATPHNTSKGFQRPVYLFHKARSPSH

B1: Cyclin T1 (natural protein, human (endogenous in HCT116), UniProt O60563 1-726, looked up)
chain: MEGERKNNNKRWYFTREQLENSPSRRFGVDPDKELSYRQQAANLLQDMGQRLNVSQLTINTAIVYMHRFYMIQSFTQFPGNSVAPAALFLAAKVEEQPKKLEHVIKVAHTCLHPQESLPDTRSEAYLQQVQDLVILESIILQTLGFELTIDHPHTHVVKCTQLVRASKDLAQTSYFMATNSLHLTTFSLQYTPPVVACVCIHLACKWSNWEIPVSTDGKHWWEYVDATVTLELLDELTHEFLQILEKTPNRLKRIWNWRACEAAKKTKADDRGTDEKTSEQTILNMISQSSSDTTIAGLMSMSTSTTSAVPSLPVSEESSSNLTSVEMLPGKRWLSSQPSFKLEPTQGHRTSENLALTGVDHSLPQDGSNAFISQKQNSKSVPSAKVSLKEYRAKHAEELAAQKRQLENMEANVKSQYAYAAQNLLSHHDSHSSVILKMPIEGSENPERPFLEKADKTALKMRIPVAGGDKAASSKPEEIKMRIKVHAAADKHNSVEDSVTKSREHKEKHKTHPSNHHHHHNHHSHKHSHSQLPVGTGNKRPGDPKHSSQTSNLAHKTYSLSSSFSSSSSTRKRGPSEETGGAVFDHPAKIAKSTKSSSLNFSFPSLPTMGQMPGHSSDTSGLSFSQPSCKTRVPHSKLDKGPTGANGHNTTQTIDYQDTVNMLHSLLSAQGVQPTQPTAFEFVRPYSDYLNPRSGGISSRSGNTDKPRPPPLPSEPPPPLPPLPK
notes: Cyclin T1, human, endogenous, component of P-TEFb, detected by western blot; Component of the P-TEFb complex; results are printed for CDK9 and Cyclin T1 one by one; source: endogenous, HCT116 lysate
HEXIM1
  percent reduction of relative binding in PUS7 KD cells against control cells: 39%
LARP7
  percent reduction of relative binding in PUS7 KD cells against control cells: 67%
MEPCE
  percent reduction of relative binding in PUS7 KD cells against control cells: 71%
